Reference: publication PMC3220786 (ACS Chemical Biology, 2011)

Experiment: Cytotoxicity, Ba/F3 cells
Type: cell-based, murine
Conditions: mouse

Compound: CC1=C[C@H]2O[C@@H]3C[C@H]4OC(=O)/C=C\C=C\C(=O)OCC/C(C)=C/C(=O)OC[C@@]2(CC1)[C@]4(C)[C@]31CO1 [Verrucarin J]
- CC50 at 3 days: 29 nM
